Our source for the Ki values is ChEMBL document CHEMBL1131451, “Structural and functional analyses of benzamidine-based inhibitors in complex with trypsin: implications for the inhibition of factor Xa, tPA, and urokinase” (J Med Chem, 1998).

Amino acid sequences for entries named in this document (tags omitted).
UniProt P00750, whole entry: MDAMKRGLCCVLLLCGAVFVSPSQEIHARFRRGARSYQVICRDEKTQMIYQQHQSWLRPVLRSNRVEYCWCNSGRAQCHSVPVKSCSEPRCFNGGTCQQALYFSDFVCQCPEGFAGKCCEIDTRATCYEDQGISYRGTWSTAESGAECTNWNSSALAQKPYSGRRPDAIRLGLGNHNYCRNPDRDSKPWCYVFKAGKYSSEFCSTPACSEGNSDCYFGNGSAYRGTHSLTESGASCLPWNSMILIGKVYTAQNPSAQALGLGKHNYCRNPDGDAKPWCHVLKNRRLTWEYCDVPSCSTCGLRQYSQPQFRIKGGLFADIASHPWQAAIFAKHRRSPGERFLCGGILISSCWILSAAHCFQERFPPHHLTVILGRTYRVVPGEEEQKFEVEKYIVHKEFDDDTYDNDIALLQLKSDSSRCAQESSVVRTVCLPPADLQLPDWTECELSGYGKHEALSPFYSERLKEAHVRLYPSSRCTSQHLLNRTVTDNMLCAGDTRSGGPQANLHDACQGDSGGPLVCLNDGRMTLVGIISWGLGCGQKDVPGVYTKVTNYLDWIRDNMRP

pKi: −log10 of the molar value.

The test has as its target Tissue-type plasminogen activator (Homo sapiens, UniProt P00750). The test is described as follows: Inhibitory activity against human tissue-type plasminogen activator expressed as dissociation constant.

`N=C(N)c1ccccc1` [BENZAMIDINE] showed a pKi of 3.04.
